Data reported in patent publication US8716333B2, “Process and compounds for the manufacture of oseltamivir and analogs thereof, and new antiviral agents” (Brock University, priority 2009, dated 2014).

Target: T1, Neu1 sialidase (Mus musculus, UniProt O35657)
T1 construct: endogenous in cells; host or cells: RAW-blue macrophage cells
Test: LPS-induced Neu1 sialidase activity in live RAW-blue macrophage cells (4MU-NeuAc fluorescence)
Format: cell-based
Method: Inhibitory Potency of Compounds of the Application on Lipopolysaccharide (LPS)-Induced Neu1 Sialidase Activity in Live Raw-Blue Macrophage Cells
Compounds of the application were assessed for antiviral activity using an assay that detects sialidase activity on the surface of viable cells. […] Fluorescent images were taken at 1-2 minutes after adding the substrate using epi-fluorescent microscopy (40× objective). The mean fluorescence surrounding the cells for each of the images was measured using Image J software.

CCOC(=O)C1=C[C@@H](OC(CC)CC)[C@H](NC(C)=O)[C@@H](N)C1 [oseltamivir phosphate 1a (Tamiflu ®), oseltamivir phosphate, reference compound]
IC50: 20 nM
